Data reported in article PMC5947877 (Phytomedicine : international journal of phytotherapy and …, 2017).

By UniProt entry, the sequences of proteins in these tests, tags left out.
UniProt P21397, whole entry: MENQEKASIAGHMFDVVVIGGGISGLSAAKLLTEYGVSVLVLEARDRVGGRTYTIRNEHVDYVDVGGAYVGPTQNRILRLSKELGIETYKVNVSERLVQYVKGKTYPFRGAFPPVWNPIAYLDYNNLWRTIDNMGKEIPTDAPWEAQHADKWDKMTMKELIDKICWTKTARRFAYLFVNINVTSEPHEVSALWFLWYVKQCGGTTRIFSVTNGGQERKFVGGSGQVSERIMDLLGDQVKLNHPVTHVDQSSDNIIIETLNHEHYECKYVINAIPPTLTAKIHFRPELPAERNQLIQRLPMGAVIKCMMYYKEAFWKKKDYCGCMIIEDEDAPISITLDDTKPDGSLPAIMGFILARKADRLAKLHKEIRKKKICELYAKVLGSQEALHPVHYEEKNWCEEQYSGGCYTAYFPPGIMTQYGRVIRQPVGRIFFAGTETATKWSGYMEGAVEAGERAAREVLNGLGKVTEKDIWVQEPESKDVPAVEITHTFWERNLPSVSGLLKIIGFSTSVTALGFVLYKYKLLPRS
UniProt P27338, whole entry: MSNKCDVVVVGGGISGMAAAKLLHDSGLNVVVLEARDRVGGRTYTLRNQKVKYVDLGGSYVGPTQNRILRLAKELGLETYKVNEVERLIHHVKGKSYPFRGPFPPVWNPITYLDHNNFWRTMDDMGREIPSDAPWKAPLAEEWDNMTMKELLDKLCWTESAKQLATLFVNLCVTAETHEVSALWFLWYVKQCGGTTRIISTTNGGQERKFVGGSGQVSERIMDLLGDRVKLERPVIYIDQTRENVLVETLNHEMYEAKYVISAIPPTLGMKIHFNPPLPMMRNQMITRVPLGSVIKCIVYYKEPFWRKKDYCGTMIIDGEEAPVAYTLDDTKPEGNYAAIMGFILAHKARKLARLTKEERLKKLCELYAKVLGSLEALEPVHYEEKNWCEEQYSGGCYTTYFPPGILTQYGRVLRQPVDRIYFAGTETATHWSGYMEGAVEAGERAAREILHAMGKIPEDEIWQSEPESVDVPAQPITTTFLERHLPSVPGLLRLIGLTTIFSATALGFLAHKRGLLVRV

Assays:
Type in all cases: biochemical
[1] = target: T1, recombinant human MAO-A (Homo sapiens, UniProt P21397); assay: Fluorometric kynuramine deamination assay, MAO-A inhibition
[2] = target: recombinant human MAO-B (Homo sapiens, UniProt P27338); assay: Fluorometric kynuramine deamination assay, MAO-B inhibition
[3] = target: T1, recombinant human MAO-A; assay: Enzyme kinetics and mechanism of inhibition with MAO-A

- IC50 [1]: 270 ± 30 nM
- IC50 [2]: 140 ± 20 nM
- Ki [3]: 121 ± 6.1 nM
SMILES: NNCCc1ccccc1 [Phenelzine, phenelzine, reference compound]
